Target: HLA B*0801 (Homo sapiens, UniProt P01889, A93T/A95T/D138N/E176V/E187T/K202T/Q94N/R180D/S35A/V36M/Y33D/Y91F)
Assay: biochemical
Type: binding

Protein sequences, listed by entry. Tags and fused reporters are not part of them. Lines headed by an entry give the natural chain unless they say otherwise; changes in a name come on top.
UniProt P01889: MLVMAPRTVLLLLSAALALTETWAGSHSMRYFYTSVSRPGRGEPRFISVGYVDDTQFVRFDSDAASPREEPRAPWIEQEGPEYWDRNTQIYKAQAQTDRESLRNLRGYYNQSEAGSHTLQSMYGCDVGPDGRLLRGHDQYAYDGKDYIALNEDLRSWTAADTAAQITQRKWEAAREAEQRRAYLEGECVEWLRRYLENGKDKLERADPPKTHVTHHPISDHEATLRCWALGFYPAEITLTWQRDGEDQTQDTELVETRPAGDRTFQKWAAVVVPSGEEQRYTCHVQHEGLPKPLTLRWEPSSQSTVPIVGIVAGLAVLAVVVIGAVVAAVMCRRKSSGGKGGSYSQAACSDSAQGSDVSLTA

`CC(C)C[C@H](NC(=O)[C@H](CO)NC(=O)[C@H](Cc1c[nH]cn1)NC(=O)[C@@H](NC(=O)[C@H](Cc1ccc(O)cc1)NC(=O)[C@H](Cc1ccc(O)cc1)NC(=O)[C@H](CC(C)C)NC(=O)[C@H](C)NC(=O)[C@@H](N)CCC(=O)O)C(C)C)C(=O)O` [3102.0715] was tested, and the IC50 was 2.1 nM.
